From PMC8532158

Assays:
Assay in all cases: yeast surface display affinity sorting with deep sequencing, enrichments normalized to ddG of purified proteins
[1] = biological target: bovine alpha-chymotrypsin (Bos taurus) (UniProt P00766)
[2] = biological target: bovine trypsin (Bos taurus) (UniProt P00760)
[3] = biological target: human mesotrypsin (Homo sapiens) (UniProt P35030)

A16C (from UniProt P00974)
ddG [1]: 3.29 kcal/mol | ddG [2]: 9.65 kcal/mol | ddG [3]: 1.39 kcal/mol

A16D (from UniProt P00974)
ddG [1]: 3.87 kcal/mol | ddG [2]: 9.13 kcal/mol | ddG [3]: 1.13 kcal/mol

A16E (from UniProt P00974)
ddG [1]: 3.45 kcal/mol | ddG [2]: 8.65 kcal/mol | ddG [3]: 1.57 kcal/mol

A16F (from UniProt P00974)
ddG [1]: 3.99 kcal/mol | ddG [2]: 10.1 kcal/mol | ddG [3]: 1.78 kcal/mol

A16G (from UniProt P00974)
ddG [1]: 1.51 kcal/mol | ddG [2]: 3.6 kcal/mol | ddG [3]: 0.77 kcal/mol

A16H (from UniProt P00974)
ddG [1]: 3.8 kcal/mol | ddG [2]: 8.84 kcal/mol | ddG [3]: 1.51 kcal/mol

A16I (from UniProt P00974)
ddG [1]: 3.79 kcal/mol | ddG [2]: 5.09 kcal/mol | ddG [3]: 1.35 kcal/mol

A16K (from UniProt P00974)
ddG [1]: 4.54 kcal/mol | ddG [2]: 9.83 kcal/mol | ddG [3]: 1.39 kcal/mol

A16L (from UniProt P00974)
ddG [1]: 4.8 kcal/mol | ddG [2]: 8.02 kcal/mol | ddG [3]: 1.85 kcal/mol

A16M (from UniProt P00974)
ddG [1]: 3.66 kcal/mol | ddG [2]: 3.96 kcal/mol | ddG [3]: 1.93 kcal/mol

A16N (from UniProt P00974)
ddG [1]: 4.1 kcal/mol | ddG [2]: 8.97 kcal/mol | ddG [3]: 1.31 kcal/mol

A16P (from UniProt P00974)
ddG [1]: 4.32 kcal/mol | ddG [2]: 9.01 kcal/mol | ddG [3]: 1.53 kcal/mol

A16Q (from UniProt P00974)
ddG [1]: 3.43 kcal/mol | ddG [2]: 6.73 kcal/mol | ddG [3]: 1.62 kcal/mol

A16R (from UniProt P00974)
ddG [1]: 4.36 kcal/mol | ddG [2]: 4.65 kcal/mol | ddG [3]: 1.94 kcal/mol

A16S (from UniProt P00974)
ddG [1]: 3.51 kcal/mol | ddG [2]: 4.5 kcal/mol | ddG [3]: 1.65 kcal/mol

A16T (from UniProt P00974)
ddG [1]: 1.96 kcal/mol | ddG [2]: 4.85 kcal/mol | ddG [3]: 0.994 kcal/mol

A16V (from UniProt P00974)
ddG [1]: 3.65 kcal/mol | ddG [2]: 4.63 kcal/mol | ddG [3]: 2.14 kcal/mol

A16W (from UniProt P00974)
ddG [1]: 3.77 kcal/mol | ddG [2]: 8.95 kcal/mol | ddG [3]: 1.82 kcal/mol

A16Y (from UniProt P00974)
ddG [1]: 3.72 kcal/mol | ddG [2]: 8.04 kcal/mol | ddG [3]: 0.415 kcal/mol

G12A (from UniProt P00974)
ddG [1]: 0.928 kcal/mol | ddG [2]: 3.36 kcal/mol | ddG [3]: 1.2 kcal/mol

G12C (from UniProt P00974)
ddG [1]: 3.31 kcal/mol | ddG [2]: 6.81 kcal/mol | ddG [3]: 1.24 kcal/mol

G12D (from UniProt P00974)
ddG [1]: 3.53 kcal/mol | ddG [2]: 4.71 kcal/mol | ddG [3]: 1.24 kcal/mol

G12E (from UniProt P00974)
ddG [1]: 4.36 kcal/mol | ddG [2]: 4.87 kcal/mol | ddG [3]: 1.92 kcal/mol

G12F (from UniProt P00974)
ddG [1]: 3.15 kcal/mol | ddG [2]: 2.59 kcal/mol | ddG [3]: -0.173 kcal/mol

G12H (from UniProt P00974)
ddG [1]: 3.25 kcal/mol | ddG [2]: 4.53 kcal/mol | ddG [3]: 1.78 kcal/mol

G12I (from UniProt P00974)
ddG [1]: 3.68 kcal/mol | ddG [2]: 2.51 kcal/mol | ddG [3]: 1.47 kcal/mol

G12K (from UniProt P00974)
ddG [1]: 2.84 kcal/mol | ddG [2]: 4.95 kcal/mol | ddG [3]: 2.47 kcal/mol

G12L (from UniProt P00974)
ddG [1]: 4.33 kcal/mol | ddG [2]: 3.65 kcal/mol | ddG [3]: 0.11 kcal/mol

G12M (from UniProt P00974)
ddG [1]: 2.37 kcal/mol | ddG [2]: 4.26 kcal/mol | ddG [3]: 0.602 kcal/mol

G12N (from UniProt P00974)
ddG [1]: 0.542 kcal/mol | ddG [2]: 4.36 kcal/mol | ddG [3]: 1.73 kcal/mol

G12P (from UniProt P00974)
ddG [1]: 3.66 kcal/mol | ddG [2]: 3.71 kcal/mol | ddG [3]: 0.0908 kcal/mol

G12Q (from UniProt P00974)
ddG [1]: 3.78 kcal/mol | ddG [2]: 4.07 kcal/mol | ddG [3]: 1.49 kcal/mol

G12R (from UniProt P00974)
ddG [1]: 3.87 kcal/mol | ddG [2]: 4.32 kcal/mol | ddG [3]: 1.5 kcal/mol

G12S (from UniProt P00974)
ddG [1]: 0.505 kcal/mol | ddG [2]: 3.09 kcal/mol | ddG [3]: 0.878 kcal/mol

G12T (from UniProt P00974)
ddG [1]: 4.81 kcal/mol | ddG [2]: 3.86 kcal/mol | ddG [3]: 2.39 kcal/mol

G12V (from UniProt P00974)
ddG [1]: 3.63 kcal/mol | ddG [2]: 3.24 kcal/mol | ddG [3]: 1.62 kcal/mol

G12W (from UniProt P00974)
ddG [1]: 4.11 kcal/mol | ddG [2]: 2.49 kcal/mol | ddG [3]: -0.643 kcal/mol

G12Y (from UniProt P00974)
ddG [1]: 3.98 kcal/mol | ddG [2]: 3.77 kcal/mol | ddG [3]: -0.172 kcal/mol

G36A (from UniProt P00974)
ddG [1]: 0.627 kcal/mol | ddG [2]: 3.14 kcal/mol | ddG [3]: 1.87 kcal/mol

G36C (from UniProt P00974)
ddG [1]: 3.42 kcal/mol | ddG [2]: 9.1 kcal/mol | ddG [3]: 2.21 kcal/mol

G36D (from UniProt P00974)
ddG [1]: 4.17 kcal/mol | ddG [2]: 4.57 kcal/mol | ddG [3]: 1.62 kcal/mol

G36E (from UniProt P00974)
ddG [1]: 3.18 kcal/mol | ddG [2]: 7.66 kcal/mol | ddG [3]: 1.58 kcal/mol

G36F (from UniProt P00974)
ddG [1]: 3.29 kcal/mol | ddG [2]: 3.3 kcal/mol | ddG [3]: 2.19 kcal/mol

G36H (from UniProt P00974)
ddG [1]: 2.95 kcal/mol | ddG [2]: 4.26 kcal/mol | ddG [3]: 2.42 kcal/mol

G36I (from UniProt P00974)
ddG [1]: 5.3 kcal/mol | ddG [2]: 8.79 kcal/mol | ddG [3]: 1.99 kcal/mol

G36K (from UniProt P00974)
ddG [1]: 3.4 kcal/mol | ddG [2]: 4.63 kcal/mol | ddG [3]: 2.19 kcal/mol

G36L (from UniProt P00974)
ddG [1]: 4.56 kcal/mol | ddG [2]: 7.69 kcal/mol | ddG [3]: 1.9 kcal/mol

G36M (from UniProt P00974)
ddG [1]: 4.12 kcal/mol | ddG [2]: 4.4 kcal/mol | ddG [3]: 1.9 kcal/mol

G36N (from UniProt P00974)
ddG [1]: 4.22 kcal/mol | ddG [2]: 4.68 kcal/mol | ddG [3]: 2.36 kcal/mol

G36P (from UniProt P00974)
ddG [1]: 4.71 kcal/mol | ddG [2]: 8.35 kcal/mol | ddG [3]: 2.04 kcal/mol

G36Q (from UniProt P00974)
ddG [1]: 3.25 kcal/mol | ddG [2]: 4.88 kcal/mol | ddG [3]: 0.769 kcal/mol

G36R (from UniProt P00974)
ddG [1]: 2.77 kcal/mol | ddG [2]: 3.54 kcal/mol | ddG [3]: 2 kcal/mol

G36S (from UniProt P00974)
ddG [1]: 0.998 kcal/mol | ddG [2]: 3.42 kcal/mol | ddG [3]: 2 kcal/mol

G36T (from UniProt P00974)
ddG [1]: 3.63 kcal/mol | ddG [2]: 4.54 kcal/mol | ddG [3]: 1.73 kcal/mol

G36V (from UniProt P00974)
ddG [1]: 3.4 kcal/mol | ddG [2]: 6.93 kcal/mol | ddG [3]: 1.3 kcal/mol

G36W (from UniProt P00974)
ddG [1]: 3.4 kcal/mol | ddG [2]: 6.11 kcal/mol | ddG [3]: 1.26 kcal/mol

G36Y (from UniProt P00974)
ddG [1]: 3.77 kcal/mol | ddG [2]: 4.23 kcal/mol | ddG [3]: 1.75 kcal/mol

G37A (from UniProt P00974)
ddG [1]: 0.493 kcal/mol | ddG [2]: 1.47 kcal/mol | ddG [3]: -0.0136 kcal/mol

G37C (from UniProt P00974)
ddG [1]: 2.46 kcal/mol | ddG [2]: 7.33 kcal/mol | ddG [3]: 1.03 kcal/mol

G37D (from UniProt P00974)
ddG [1]: 2.92 kcal/mol | ddG [2]: 7.4 kcal/mol | ddG [3]: 1.59 kcal/mol

G37E (from UniProt P00974)
ddG [1]: 4.28 kcal/mol | ddG [2]: 7.31 kcal/mol | ddG [3]: 2.65 kcal/mol

G37F (from UniProt P00974)
ddG [1]: 2.99 kcal/mol | ddG [2]: 3.37 kcal/mol | ddG [3]: 0.00167 kcal/mol

G37H (from UniProt P00974)
ddG [1]: 0.754 kcal/mol | ddG [2]: 3.53 kcal/mol | ddG [3]: -0.0769 kcal/mol

G37I (from UniProt P00974)
ddG [1]: 3.83 kcal/mol | ddG [2]: 6.41 kcal/mol | ddG [3]: 1.2 kcal/mol

G37K (from UniProt P00974)
ddG [1]: 0.426 kcal/mol | ddG [2]: 3.41 kcal/mol | ddG [3]: -0.238 kcal/mol

G37L (from UniProt P00974)
ddG [1]: 0.504 kcal/mol | ddG [2]: 1.95 kcal/mol | ddG [3]: -0.0391 kcal/mol
